The nature of series [1]: Aqueous solubility at 20° C., shake-flask, stepwise water addition (Example 2). The format is physicochemical. To be noted: for Solubility in water: 20° C.; for pH of solution: after solubility test in water. As for the experimental part: The Aramchol salts of the present invention were further assessed for their solubility in water. […] 5 mg of each salt was weighed. Water was added stepwise until a clear solution was obtained (Table 2, solubility in water). The pH of each solution was measured (Table 2, pH after solubility).

The nature of series [2]: Saturated solubility in buffer solutions and bio-relevant media at 37° C. (Example 6). The format is physicochemical. Particulars: for solubility: 37° C. As for the experimental part: The saturated solubility of N-methylglucamine, Tromethamine and L-Lysine was determined in different buffer solutions and bio-relevant media: HCl buffer pH 1.2, Acetate buffer pH 4.5, Saline pH 5.5, Phosphate buffer pH 6.5, Phosphate buffer pH 7.0, PBS pH 7.4, FaSSIF (pH 6.5), FeSSIF (pH 5.0) and demi-water (pH 7.8, was not adjusted after dissolution). Experiments were performed by slurrying a 5 mL (˜150 mg) saturated solution for 30 minutes and 24 hours at 37° C. […] All experiments were performed in duplicate.

The nature of series [3]: In vivo permeability / PK after intrajejunal administration in cannulated rats (Example 7). Details: species or system male Wistar rats. To be noted: rat. The procedure: An in vivo permeability study of Aramchol salts was performed in male Wistar rats cannulated in the jugular vein and in the jejunum. Intestinal cannulation was performed in order to bypass protonation of Aramchol salts in acidic gastric pH. Aramchol salts solubilized in PBS (30 mg/mL) were administered to rats intestine (jejunum) in a dose of 100 mg/kg (based on free acid), via a cannula inserted into the proximal side of the jejunum. A suspension of Aramchol free acid (in PBS, 30 mg/mL) was administered via the same route and was used as control. Blood samples were withdrawn via a cannula inserted into jugular vein at pre-determined time points (pre-dose, 1 hr, 2 hr, 4 hr, 8 hr, 12 hr, 24 hr post dose). Plasma concentrations of Aramchol (free acid) were measured using a liquid chromatography-tandem mass spectrometry (LC-MS-MS) method by Analyst Bioanalytical Laboratories, Israel. All PK parameters were calculated using non-compartmental analysis. Only those plasma concentrations equal to or greater than the lower limit of quantitation (LOQ) (48.66 ng/mL) were used in the analysis. […] The following PK parameters were calculated: maximum plasma concentration (Cmax), time to Cmax (Tmax), area under the plasma concentration-time curve from time of administration until the last plasma concentration (AUC0-4), AUC/dose, elimination half-life (t½). […]

The nature of series [4]: Pharmacokinetics of capsules in dogs, single dose and BID (Example 8). As for the experimental part: Capsules containing 100 mg of Aramchol were dosed to dogs as either the free acid or the meglumine salt.
The complete data-set across all animals and time-points for each dose form (free acid or meglumine salt) were fit to single compartment PK models with first order rate of absorption Ka (h−1) and elimination parameterised by CL and V (rate of elimination=CL/V, h−1). For the meglumine salt group, the first dose data for M5 was removed.
Capsules containing 100 mg of Aramchol were dosed to dogs as either the free acid or the meglumine salt BID. […] A clinical study that investigated the plasma concentration of Aramchol after oral dosing of 300 mg BID at steady state was conducted in 16 healthy volunteers.

Series [5] in a line: Twice daily administration for 10 days of Aramchol and Aramchol meglumine in humans (Example 9). The format is in vivo. The procedure:
300 mg aramchol free acid were administered to human subjects twice daily, and 383 mg aramchol meglumine salt were administered to human subjects twice daily, as detailed in FIG. 13.

Where [6] appears, read: Phosphate buffer pH 6.5, 30 min.
[7] abbreviates: Phosphate buffer pH 7.0, 30 min.

Take “3β-arachidylamido-7α,12α-dihydroxy-5β-cholan-24-oic acid N-methylglucamine salt”: the Solubility in water in series [1] (XRPD: Amorphous) was 113 to 1130 mg/mL. This substance had a pH of solution in series [1] (XRPD: Amorphous) of 7. The “increase in solubility from pH 7.4 (PBS) to pH 7.8 (demi-water)” value in series [2] came out at 5 fold. The solubility is reported as 156.51 mg/ml ± in series [2] (Demi-Water (pH 7.8), 30 min); 109.72 mg/ml ± in series [2] (Demi-Water (pH 7.8), 24 h, listed as N-Methyl glucamine); “remained as a solution” in series [2] (Demi-Water (pH 7.8), 24 h, listed as N-methylglucamine salt); “Gel” in series [2] (FaSSIF (pH 6.5), 30 min); “Gel” in series [2] (FaSSIF (pH 6.5), 24 h); “Gel” in series [2] (FeSSIF (pH 5.0), 30 min). For the same substance, the solubility result in series [2] (FeSSIF (pH 5.0), 24 h) is on record as “Gel”; in series [2] (PBS pH 7.4, 30 min) it was 31.83 mg/ml ±; in series [2] (PBS pH 7.4, 24 h), “Gel”; in series [2] (setting [6]), “Gel”; in series [2] (Phosphate buffer pH 6.5, 24 h), “Gel”; in series [2] (setting [7]) it was 18.85 mg/ml ±. Also, the solubility result is recorded as “Gel” in series [2] (Phosphate buffer pH 7.0, 24 h) and 0.04 mg/ml ± in series [2] (Saline pH 5.5, 30 min). Besides, in series [3], the “increase in AUC/dose compared to Aramchol free acid” value came to 2.6 fold. Besides, the “AUC0-12 h/AUCinf” value in series [4] (day 1 AUCinf with animal M5 removed) came to 1.02; in series [4] (day 11 AUC0-12 h over day 1 AUCinf, all animals), 1.38. Besides, in series [4] (overall non-compartmental analysis), the “exposure higher relative to the free acid” value is recorded as “approximately 30%”. The same substance had a V in series [4] (single compartment PK model) of 11474. Further, the Ka in series [4] (single compartment PK model, first order absorption) was 0.11 h⁻¹. Further, the “AUCss and Cavg / exposure relative to aramchol free acid” value in series [5] (listed as Aramchol meglumine) is “double exposure”; in series [5] (listed as armachol meglumine salt), “about twice higher”.
Consider “3β-arachidylamido-7α,12α-dihydroxy-5β-cholan-24-oic acid lysine salt [L-Lysine]”, for which the Solubility in water in series [1] (XRPD: Amorphous) is 10 to 32 mg/mL; in series [1] (XRPD: Crystalline), 11 to 35 mg/mL. The pH of solution in series [1] (XRPD: Amorphous) and in series [1] (XRPD: Crystalline) was 8 in each case. In addition, the solubility was 49.27 mg/ml ± in series [2] (Demi-Water (pH 7.8), 30 min); “Gel” in series [2] (Demi-Water (pH 7.8), 24 h); “turned into gets” in series [2] (Demi-Water (pH 7.8), 24 h, listed as lysine salt); “Gel” in series [2] (FaSSIF (pH 6.5), 30 min); “Gel” in series [2] (FaSSIF (pH 6.5), 24 h); “Gel” in series [2] (FeSSIF (pH 5.0), 30 min). Also, the solubility entry in series [2] (FeSSIF (pH 5.0), 24 h) is “Gel”; in series [2] (PBS pH 7.4, 30 min) it was 32.72 mg/ml ±; in series [2] (PBS pH 7.4, 24 h), “Gel”; in series [2] (setting [6]), “Gel”; in series [2] (Phosphate buffer pH 6.5, 24 h), “Gel”; in series [2] (setting [7]), 21.16 mg/ml ±. In addition, the solubility entry in series [2] (Phosphate buffer pH 7.0, 24 h) is listed as “Gel”; in series [2] (Saline pH 5.5, 30 min) it was 0.05 mg/ml ±.

The record behind these values is patent US20210230213A1, “ARAMCHOL SALTS” (GALMED RESEARCH AND DEVELOPMENT LTD., priority 2013, published 2021).
